Measured values: patent publication US9850216B2 (H. LEE MOFFITT CANCER CENTER AND RESEARCH INSTITUTE, INC., priority 2013, dated 2017)
“And” between values parts separate entries of the source, which are not always exact repeats. Identical values can stand only once. Counter-ions that a name gives are not always drawn. Like-named read-outs stand apart in the source and are kept apart here. Values belong to the compound of their own block, whether it stands above or below them.

By UniProt entry, the sequences of proteins in these tests, tags left out. Where a name states a change or a piece, a line headed by the entry shows the natural chain unless it says otherwise.
UniProt Q07912: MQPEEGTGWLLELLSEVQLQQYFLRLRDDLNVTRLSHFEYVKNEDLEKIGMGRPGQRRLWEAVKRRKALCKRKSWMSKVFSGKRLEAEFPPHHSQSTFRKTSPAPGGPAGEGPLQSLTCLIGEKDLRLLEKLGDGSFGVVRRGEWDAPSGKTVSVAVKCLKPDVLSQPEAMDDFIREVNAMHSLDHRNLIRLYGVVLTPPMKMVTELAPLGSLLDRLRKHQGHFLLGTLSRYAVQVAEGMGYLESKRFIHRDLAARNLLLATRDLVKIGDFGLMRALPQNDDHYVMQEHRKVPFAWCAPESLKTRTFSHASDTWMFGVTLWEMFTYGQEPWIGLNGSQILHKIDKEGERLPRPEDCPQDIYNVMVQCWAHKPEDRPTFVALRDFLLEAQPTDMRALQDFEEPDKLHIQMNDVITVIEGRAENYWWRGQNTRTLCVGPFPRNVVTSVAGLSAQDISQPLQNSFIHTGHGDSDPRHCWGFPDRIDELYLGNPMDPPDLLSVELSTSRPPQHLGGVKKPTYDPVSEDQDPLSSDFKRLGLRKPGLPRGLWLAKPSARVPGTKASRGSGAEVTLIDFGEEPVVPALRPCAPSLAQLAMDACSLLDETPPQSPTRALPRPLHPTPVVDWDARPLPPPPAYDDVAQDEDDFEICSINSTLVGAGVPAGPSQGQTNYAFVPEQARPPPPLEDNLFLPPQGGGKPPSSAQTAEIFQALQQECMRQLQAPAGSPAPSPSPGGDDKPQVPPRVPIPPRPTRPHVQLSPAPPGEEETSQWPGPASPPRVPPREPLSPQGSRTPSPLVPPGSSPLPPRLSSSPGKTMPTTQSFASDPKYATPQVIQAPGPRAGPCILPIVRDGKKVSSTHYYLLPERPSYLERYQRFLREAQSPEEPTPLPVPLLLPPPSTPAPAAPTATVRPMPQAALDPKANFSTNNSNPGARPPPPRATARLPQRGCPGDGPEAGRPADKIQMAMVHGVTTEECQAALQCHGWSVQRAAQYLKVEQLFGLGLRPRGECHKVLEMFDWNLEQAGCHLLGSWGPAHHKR

Key:
[1] = target: ACK1 (Homo sapiens, UniProt Q07912); test: ACK1 ELISA: phosphorylation of AKT-derived peptide; type: biochemical
[2] = test system: AR; test: AR protein levels in androgen-deprived prostate cancer cells, immunoblotting; type: cell-based, human; conditions: immunoblotting (FIG. 2)

SMILES: Brc1cnc(Nc2ccc(N3CCNCC3)cc2)nc1NCC1CCCO1 (centres unmarked) [Compound 9i]
- inhibition at 10 µM ([1]; read-out: % Inhibition @ 10 μM (ELISA), 10 μM, Table 2, library 9): 85.5 ± 0.7%

SMILES: Brc1cnc(Nc2ccc(N3CCNCC3)cc2)nc1NCC1CCCO1 (centres unmarked) [YL9-167, 5-Bromo-N2-(4-(piperazin-1-yl)phenyl)-N4-((tetrahydrofuran-2-yl)methyl)pyrimidine-2,4-diamine TFA salt]
- % Inhibition at 10 μM (ELISA) ([1]; Table 1, replicate values listed, TFA salt): 85%
- inhibition at 10 µM ([1]; read-out: % Inhibition at 10 μM (ELISA), 10 μM, Table 1, replicate values listed): 86%

- % Inhibition at 10 μM (ELISA) ([1]; Table 1, replicate values listed): 92% and 98% and 99% (2×)
SMILES: COc1cc(N2CCC(N3CCN(C)CC3)CC2)ccc1Nc1ncc(Cl)c(Nc2ccccc2S(=O)(=O)C(C)C)n1 [TAE684, reference compound]

SMILES: CNC(=O)c1ccc(N2C(=S)N(c3ccc(C#N)c(C(F)(F)F)c3)C(=O)C2(C)C)cc1F [Enzalutamide]
- AR protein levels [2]: little effect on AR expression
